The test concerns Thoracic aorta. Put plainly: Vasodilatory activity in Wistar rat denuded thoracic aorta assessed as inhibition of L-phenylephrine-induced contraction. In kind it is functional, tissue-based. The gist of the method: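 Endothelium-denuded thoracic aorta strips from male Wistar rats (180–200 g) in gassed Krebs-type buffer at 37 °C, pH 7.4. Strips equilibrated 1.5 h, then contracted with 1 µM L-phenylephrine. Cumulative concentrations added at plateau and isometric tension recorded. EC50 (±SEM) in µM from at least five experiments.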

Structures are written as SMILES.

This note sets out measurements from ChEMBL document CHEMBL2169848, “Synthesis physicochemical profile and PAMPA study of new NO-donor edaravone co-drugs” (Bioorg Med Chem, 2012).

For `O=[N+]([O-])OCC(CCCCO)O[N+](=O)[O-]` (configuration not stated), the inhibition result was “Dose-dependent effect”.
As to `O=C(O)CCCC(CO[N+](=O)[O-])O[N+](=O)[O-]` (configuration not stated), the inhibition entry is “Dose-dependent effect”.
